The values below come from patent US11390670B2, “Antibodies against LIF and uses thereof” (MEDIMMUNE LIMITED, priority 2016, dated 2022).

One assay concerns ID8 cells. Put plainly: Ovarian orthotopic syngeneic tumor model ID8 in mice. The format is in vivo. Conditions: 200 μg/mouse and above, twice weekly. On the procedure: ID8 cells were cultured in Dulbecco's Modified Eagle Medium (DMEM) (Gibco, Invitrogen), supplemented with 10% Fetal Bovine Serum (FBS) (Gibco, Invitrogen), 40 U/mL Penicillin and 40 μg/mL Streptomycin (PenStrep) (Gibco, Invitrogen) and 0.25 μg/mL Plasmocin (Invivogen).
The ID8 cells were harvested, washed in PBS, centrifuged at 400 g for 5 min and resuspended in PBS. Cells were kept on ice to maintain optimal viability and 200 μL of the cell suspension was injected intraperitoneally with a 27G needle. The final cell number implanted into mice was 5×10^6.
Body weights were measured 2 times/week and tumor progression was monitored by measuring abdominal girth using a caliper (Fisher Scientific).

Assay [1] deals with pSTAT3 under endogenous LIF stimulation in U-251 cells. The assay is described as follows: pSTAT3 inhibition under endogenous LIF in serum starved U-251 cells (Meso Scale Discovery). The format is cell-based, human. The conditions noted are these: GBM U251, Endogenous LIF Condition. The method, then:
The U-251 cells were seeded at 600,000 cells per 6 cm plate (per condition). […] As a negative control of pSTAT3, the JAK I inhibitor (Calbiochem #420099) was used at 1 uM for 30 min at 37° C. Cells were then harvested on ice for lysates following the Meso Scale Discovery Multi-Spot Assay System Total STAT3 (Cat #K150SND-2) and Phospho-STAT3 (Tyr705) (Cat #K150SVD-2) kits' protocol, to measure protein levels detectable by the MSD Meso Sector S600.

The test system of assay [2] is LIF-induced STAT3 phosphorylation at tyrosine 705. The assay is described as follows: Inhibition of LIF-induced STAT3 phosphorylation by western blot, 5D8 humanization panel. The format is cell-based, human. Conditions: U251 glioma cells, serum starved 8 hours, antibodies over night at 10 μg/ml. On the procedure: Inhibition of LIF-induced STAT3 phosphorylation at tyrosine 705 was determined by western blot. U251 glioma cells were plated in 6-well plates at a density of 100.000 cells/well. Cells were cultured in complete medium for 24 hours before any treatment and after that, cells were serum starved for 8 hours. After that, cells with the indicated antibodies over night at a concentration of 10 μg/ml. After treatment, proteins were obtained in radio-immunoprecipitation assay (RIPA) lysis buffer containing phosphatase and protease inhibitors, quantified (BCA-protein assay, Thermo Fisher Scientific) and used in western blot. For western blot, membranes were blocked for 1 hour in 5% non-fat dried milk—TBST and incubated with the primary antibody overnight (p-STAT3, catalog #9145, Cell Signaling or STAT3, catalog #9132, Cell Signaling) or 30 minutes (β-actin-peroxidase, catalog #A3854, Sigma-Aldrich). Membranes were then washed with TBST, incubated with secondary and washed again. Proteins were detected by chemiluminescence (SuperSignal Substrate, catalog #34076, Thermo Fisher Scientific). The darker the pSTAT3 band the less inhibition is present.
On the technique in general: A western blot detects proteins with antibodies after separation by electrophoresis.

Assay [3] deals with CCL22 and CD206 (MRC1) expression. Put plainly: Human organotypic tissue slice culture model, M2 macrophage markers. The format is cell-based. The conditions noted are these: three patient samples.
The next assay concerns human U251 GBM cells. The assay is described as follows: Orthotopic GBM tumor model with luciferase expressing U251 cells in mice. The format is in vivo, mouse. Conditions: 200 μg or 300 μg twice a week, after 7 days of treatment. On the procedure: Results of this study are shown in FIG. 7A (quantitation at day 26 post treatment).
U251 cells stably expressing luciferase were harvested, washed in PBS, centrifuged at 400 g for 5 min, resuspended in PBS and counted with an automated cell counter (Countess, Invitrogen). Cells were kept on ice to maintain optimal viability. Mice were anaesthetized with intraperitoneal administration of Ketamine (Ketolar50®)/Xylacine (Rompún®) (75 mg/kg and 10 mg/kg respectively). Each mouse was carefully placed in the stereotactic device and immobilized. Hair from the head was removed with depilatory cream, and the head skin was cut with a scalpel to expose the skull. A small incision was carefully made with a drill in the coordinates 1.8 mm lateral and 1 mm anterior to the Lambda. […]
Body weight and tumor volume: Body weight was measured 2 times/week and tumor growth was quantified by bioluminescence on day 7 (Xenogen IVIS Spectrum). To quantify bioluminescence activity in vivo, mice were anaesthetized using isofluorane, and injected intraperitoneally with luciferin substrate (PerkinElmer) (167 μg/kg).
Tumor size as determined by bioluminescence (Xenogen IVIS Spectrum) was evaluated at day 7. The individual tumor measurements and mean±SEM for each treatment group were calculated. Statistical significance was determined by the unpaired non-parametric Mann-Whitney U-test.

In assay [4] the test system is STAT3 phosphorylation (Tyr 705). Put plainly: Inhibition of STAT3 phosphorylation (Tyr 705) in U251 glioma cells, humanized vs parental 5D8, western blot. The format is cell-based, human. The conditions noted are these: antibody over night at 10 μg/ml. The method, then: U251 glioma cells were plated in 6-well plates at a density of 150,000 cells/well. Cells were cultured in complete medium for 24 hours before any treatment.
After treatment, proteins were obtained in radio-immunoprecipitation assay (RIPA) lysis buffer containing phosphatase and protease inhibitors, quantified (BCA-protein assay, Thermo Fisher Scientific) and used in western blot. For western blot, membranes were blocked for 1 hour in 5% non-fatty milk—TBST and incubated with the primary antibody overnight (p-STAT3, catalog #9145, Cell Signaling or STAT3, catalog #9132, Cell Signaling) or 30 minutes (β-actin-peroxidase, catalog #A3854, Sigma-Aldrich). Membranes were then washed with TBST, incubated with secondary antibody if necessary, and washed again. Proteins were detected by chemiluminescence (SuperSignal Substrate, catalog #34076, Thermo Fisher Scientific).

The subject of assay [5] is KLN205 non-small cell lung cancer (NSCLC) cells. Put plainly: Orthotopic syngeneic KLN205 non-small cell lung cancer mouse model. The format is in vivo. The conditions noted are these: 15 mg/kg or 30 mg/kg intraperitoneally twice a week, compared to vehicle. On the procedure: To determine the ability of the humanized 5D8 clone to inhibit a LIF positive cancer in vivo this antibody was tested in a mouse model of non-small cell lung carcinoma (NSCLC).
The murine non-small cell lung cancer (NSCLC) cell line KLN205 with high LIF levels was stably infected with lentivirus expressing the firefly luciferase gene for in vivo bioluminescence monitoring. To develop the mouse model, 5×10^5 KLN205 non-small cell lung cancer (NSCLC) cells were orthotopically implanted into the left lung of 8-week-old immunocompetent syngeneic DBA/2 mice by intercostal puncture. […] For the bioluminescence imaging, mice received an intraperitoneal injection of 0.2 mL of 15 mg/mL D-luciferin under 1-2% inhaled isoflurane anesthesia. The bioluminescence signals were monitored using the IVIS system 2000 series (Xenogen Corp., Alameda, Calif., USA) consisting of a highly sensitive cooled CCD camera. Living Image software (Xenogen Corp.) was used to grid the imaging data and integrate the total bioluminescence signals in each boxed region. Data were analyzed using the total photon flux emission (photons/second) in the regions of interest (ROI). […] Data are presented as mean±SEM.

Entries after “also recorded” stand apart in the source; their conditions may differ.

B1: h5D8: humanized 5D8 anti-LIF antibody comprising H2 and L2; C100 is the unsubstituted cysteine 100 reference in Table 9 (antibody)
heavy: QVQLQESGGGLVKPGGSLRLSCAASGFTFSHAWMHWVRQAPGKGLEWVGQIKAKSDDYATYYAESVKGRFTISRDDSKNTLYLQMNSLKTEDTAVYYCTCWEWDLDFWGQGTMVTVSSASTKGPSVFPLAPSSKSTSGGTAALGCLVKDYFPEPVTVSWNSGALTSGVHTFPAVLQSSGLYSLSSVVTVPSSSLGTQTYICNVNHKPSNTKVDKKV[left out - human IgG1 Fc]
light: DIVMTQTPLSSPVTLGQPASISCRSSQSLLDSDGHTYLNWLQQRPGQPPRLLIYSVSNLESGVPDRFSGSGAGTDFTLKISRVEAEDVGVYYCMQATHAPPYTFGQGTKLEIKRTVAAPSVFIFPPSDEQLKSGTASVVCLLNNFYPREAKVQWKVDNALQSGNSQESVTEQDSKDSTYSLSSTLTLSKADYEKHKVYACEVTHQGLSSPVTKSFNRGEC
With B1, the “tumor volume / tumor growth (FIG. 8C)” value in the assay with ID8 cells is given as “reduced tumor volume; also recorded: significant reduction in tumor growth”. Also, the IC90 (usually the concentration needed for an effect of 90%) in assay [1] (serum starvation (0.1% FBS), overnight) was determined as 4.1 nM. Further, the “JAK inhibition (%) Mean” value in assay [1] (JAK I inhibitor 1 uM as negative control of pSTAT3) was found to be 84%. For the same molecule, in assay [2], the “Inhibition of LIF-induced STAT3 phosphorylation, FIG. 1 lanes described in words” value was “high”. In addition, the “CCL22 and CD206 (MRC1) expression (FIG. 10B)” value in assay [3] is “significant decrease”. The “tumor size by bioluminescence (FIG. 7B)” value in the assay on human U251 GBM cells is recorded as “statistically significant reduction in tumor”. The “inhibition of STAT3 phosphorylation (Tyr 705), humanized clone compared with parental (FIG. 2A)” value in assay [4] is listed as “increased inhibition”. Moreover, the figures for the “tumor growth by bioluminescence (FIG. 6)” value in assay [5] and in assay [5] (listed as humanized 5D8) were “promote tumor regression” and “reduced tumor growth”, respectively.
